Source: ChEMBL document CHEMBL4308835, “Fluorine-Substituted Pyrrolo[2,3- d]Pyrimidine Analogues with Tumor Targeting via Cellular Uptake by Folate Receptor α and the Proton-Coupled Folate Transporter and Inhibition of de Novo Purine Nucleotide Biosynthesis” (J Med Chem, 2018)

Experiments:
[1] = Binding affinity to human FRbeta expressed in Chinese hamster D4 cells assessed as antiproliferative activity measured as reduction in cell growth after 96 hrs by Cell-Titer Blue assay
[2] = Binding affinity to human FRalpha expressed in Chinese hamster RT16 cells assessed as antiproliferative activity measured as reduction in cell growth after 96 hrs by Cell-Titer Blue assay
[3] = Antiproliferative activity in Chinese hamster R2 cells deficient in RFC, PCFT, and FRalpha assessed as reduction in cell growth after 96 hrs by Cell-Titer Blue assay; type: cell-based; settings: Cricetulus griseus, R2, 96 h

| Structure (SMILES) | IC50 [1] | IC50 [2] | IC50 [3] |
| --- | --- | --- | --- |
| Nc1nc2[nH]c(CCCc3csc(C(=O)N[C@@H](CCC(=O)O)C(=O)O)c3)cc2c(=O)[nH]1 | 0.34 nM | 0.33 nM | – |
| Nc1nc2[nH]c(CCCCc3ccc(C(=O)N[C@@H](CCC(=O)O)C(=O)O)c(F)c3)cc2c(=O)[nH]1 | – | – | > 1000 nM |
